Test results taken from patent publication US12606546B2, “Small molecule inhibitors of calcium channel activity and uses thereof” (Arizona Board of Regents on Behalf of the University of …, priority 2020, dated 2026).

The chains behind the UniProt entries cited, without tags or fusion partners.
UniProt P35372, whole entry: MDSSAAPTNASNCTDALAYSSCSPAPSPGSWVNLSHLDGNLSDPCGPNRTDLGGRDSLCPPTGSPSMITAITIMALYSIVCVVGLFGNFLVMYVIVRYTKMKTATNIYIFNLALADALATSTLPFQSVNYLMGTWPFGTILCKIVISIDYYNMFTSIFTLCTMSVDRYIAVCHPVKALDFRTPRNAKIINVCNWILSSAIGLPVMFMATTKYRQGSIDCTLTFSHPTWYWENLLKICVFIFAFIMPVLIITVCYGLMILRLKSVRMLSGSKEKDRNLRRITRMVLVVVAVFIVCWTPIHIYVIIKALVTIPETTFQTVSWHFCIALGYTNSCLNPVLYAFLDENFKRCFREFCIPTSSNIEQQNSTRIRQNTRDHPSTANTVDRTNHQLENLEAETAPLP
UniProt P41143, whole entry: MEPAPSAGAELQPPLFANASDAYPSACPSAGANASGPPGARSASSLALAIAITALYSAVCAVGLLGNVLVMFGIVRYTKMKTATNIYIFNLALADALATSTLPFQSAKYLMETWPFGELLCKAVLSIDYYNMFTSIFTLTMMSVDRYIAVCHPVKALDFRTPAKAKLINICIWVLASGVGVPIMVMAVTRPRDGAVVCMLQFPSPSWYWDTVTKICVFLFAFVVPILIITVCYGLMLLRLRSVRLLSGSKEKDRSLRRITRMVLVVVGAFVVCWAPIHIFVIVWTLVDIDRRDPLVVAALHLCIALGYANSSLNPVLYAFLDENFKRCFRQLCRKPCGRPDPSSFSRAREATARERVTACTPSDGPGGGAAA

How the values were obtained:
Settings in all cases: CHO cells
[1] = molecular target: human mu opioid receptor (MOR) (Homo sapiens, UniProt P35372); assay: Competition radioligand binding vs 3H-diprenorphine, MOR
[2] = molecular target: human delta opioid receptor (DOR) (Homo sapiens, UniProt P41143); assay: Competition radioligand binding vs 3H-diprenorphine, DOR
[3] = molecular target: human kappa opioid receptor (KOR) (Homo sapiens, UniProt P41145); assay: Competition radioligand binding vs 3H-diprenorphine, KOR

With `C[C@@H](c1ccccc1)n1nnnc1[C@@H](c1ccsc1)N1CCC(n2c(=O)[nH]c3ccccc32)CC1` the “concentration up to which no binding to the opioid receptor, MOR” value [1] was over 10 Mm, the “concentration up to which no competition binding was produced, MOR” value [1] was over 10 µM and the “Ki, MOR” value ([1]; n=3) was 5bk was reported as “Not Converged”. For the same compound, the “concentration up to which no binding to the opioid receptor, DOR” value [2] was over 10 Mm, the “concentration up to which no competition binding was produced, DOR” value [2] was over 10 µM and the “Ki, DOR” value ([2]; n=3) was 5bk was reported as “Not Converged”. The “concentration up to which no binding to the opioid receptor, KOR” value [3] was over 10 Mm, the “concentration up to which no competition binding was produced, KOR” value [3] was over 10 µM and the “Ki, KOR” value ([3]; n=3) was 5bk was reported as “Not Converged”.
